Here are results for three substances from patent publication US20050276812A1, “Antibody-drug conjugates and methods” (Genentech, Inc., priority 2004, published 2005).

In series [1] the test system is HER2 positive tumor (Fo5) allograft. The series is described as follows: HER2 transgenic explant (Fo5) allograft tumor model. It is filed as in vivo, mice. The following applies: single injection, versus Vehicle.
Series [2] is described as follows: 5-day acute toxicity study in rats. The series is classed as in vivo, female Sprague-Dawley rats.
Series [3] concerns HER2 positive tumor (Fo5) allograft. The following applies: Fo5 model (Erickson et al U.S. Pat. No. 6,632,979); cited from earlier work.

Take “trastuzumab-SIAB-DM1: trastuzumab linked by SIAB linker to DM1”: the “anti-tumor activity / tumor growth” value in series [1] is recorded as “Tumor growth was slowed most”. Consider “trastuzumab-SPP-DM1: comparison disulfide linker ADC: trastuzumab-SPP-DM1”, for which, in series [2] (22.3 mg/kg (Group 2)), the clinical toxicity entry is “most severe clinical toxicity”. Besides, in series [2] (lower dose, 1860 μg DM1/m2, single injection, 5 days), the body weight entry is listed as “decline in body weight”.

Regarding “trastuzumab: recombinant humanized IgG1 kappa monoclonal antibody binding HER2”, in series [3], the “anti-tumor activity of antibody alone” value is reported as “does not have significant anti-tumor activity”.
